Key:
[1] = Apparent bioavailability of MCAM in rats, subcutaneous vs oral (plasma concentrations); conditions: s.c. 30 mg/kg vs p.o. 100 mg/kg (3-fold increase in dose)
[2] = Apparent bioavailability of MCAM in dogs, subcutaneous vs oral (plasma concentrations); conditions: s.c. 10 mg/kg vs p.o. 30 mg/kg (3-fold increase in dose)
[3] = system: ventilatory depressant effects of fentanyl; assay: Ventilatory depressant effects of fentanyl in rhesus monkeys (head plethysmography, minute volume VE) after oral methocinnamox; conditions: for antagonism of the ventilatory depressant effects of fentanyl (shift of fentanyl dose-response curve, minute volume VE): oral (nasogastric intubation) 0.1, 0.32, 1.0 mg/kg [HCl], fentanyl subcutaneous, four rhesus monkeys
[4] = system: antinociceptive effects of fentanyl; assay: Antinociceptive effects of fentanyl in rats (warm water 50° C. tail withdrawal latency) after oral methocinnamox; conditions: for antagonism of the antinociceptive effects of fentanyl (tail withdrawal latency): oral (gastric intubation) 100 mg/kg [base], fentanyl intraperitoneal up to 0.1 mg/kg, 50° C. water, male rats; for time after oral administration at which sensitivity to antinociceptive effects of fentanyl returned to control / duration of blockade of the antinociceptive effects of fentanyl: single oral dose 100 mg/kg (free base), rats; for duration of blockade of the antinociceptive effects of fentanyl: 100 mg/kg
[5] = listed as MCAM hydrochloride (HCl), HCl

Molecule | increase in exposure (area under the curve; AUC) from s.c. to p.o. [1] [fold] | increase in exposure (area under the curve; AUC) from s.c. to p.o. [2] [fold] | antagonism of the ventilatory depressant effects of fentanyl (shift of fentanyl dose-response curve, minute volume VE) [3] | antagonism of the ventilatory depressant effects of fentanyl (shift of fentanyl dose-response curve, minute volume VE) ([3]; listed as MCAM) | duration of effectiveness against ventilatory depressant effects of fentanyl after administration ([3]; single oral (nasogastric) dose 0.1-1.0 mg/kg, rhesus monkeys) | antagonism of the antinociceptive effects of fentanyl (tail withdrawal latency) ([4]; HCl) | antagonism of the antinociceptive effects of fentanyl (tail withdrawal latency) [4, 5] | time after oral administration at which sensitivity to antinociceptive effects of fentanyl returned to control [4] [days] | duration of blockade of the antinociceptive effects of fentanyl ([4]; HCl) | duration of blockade of the antinociceptive effects of fentanyl [4, 5] | antagonism of the antinociceptive effects of fentanyl (tail withdrawal latency) [4] | antagonism of the antinociceptive effects of fentanyl (tail withdrawal latency) ([4]; listed as MCAM maleate) | duration of blockade of the antinociceptive effects of fentanyl [4] | duration of blockade of the antinociceptive effects of fentanyl ([4]; listed as MCAM maleate)
Cc1ccc(/C=C/C(=O)N[C@@]23CCC(=O)[C@@H]4Oc5c(O)ccc6c5[C@@]42CCN(CC2CC2)[C@@H]3C6)cc1 | 3 | 3 | antagonized the ventilatory depressant effects of fentanyl in all four monkeys | attenuated the ventilatory depressant effects of fentanyl | up to 8 days | – | – | – | – | – | – | – | – | –
methocinnamox HCl | – | – | – | – | – | blocking completely the effects of fentanyl up to a dose of 0.1 mg/kg | absence of any increase in tail withdrawal latency up to a dose of 0.1 mg/kg fentanyl | 45 | up to 21 days | at least 21 days | – | – | – | –
methocinnamox maleate | – | – | – | – | – | – | – | 45 | – | – | blocking completely the effects of fentanyl up to a dose of 0.1 mg/kg | absence of any increase in tail withdrawal latency up to a dose of 0.1 mg/kg fentanyl | up to 21 days | at least 21 days

From patent US20260284036A1 (priority 2023, published 2026)
